Converted amounts (≈) assume the structure as drawn.
What was measured:
Type in all cases: cell-based
P. aeruginosa ATCC 27853 = assay: MIC assay, P. aeruginosa ATCC 27853; conditions: two-fold dilution in 96-well plates, MHB, 2-7 × 10^5 CFU/mL, 18–24 h, 37 °C
Experimental: (§1) MIC measurements were performed in 96-well plates. The peptides were dissolved in 0.2% bovine serum albumin and 0.01% acetic acid, and an appropriate broth was subjected to a series of two-fold dilutions. The final concentration of microbial suspensions was from 2 × 10^5 to 7 × 10^5 colony forming units (CFU)∙mL^−1. Key parameters were volume (50 μL bacterial suspension + 50 μL peptide solution), incubating time (18–24 h), and temperature (37 °C). Each test was performed in three replicates on at least two independent occasions. The Mueller Hilton broth (MHB) (AoBoX, Shanghai, China) without or with microbial cells was regarded as the negative control or positive control, respectively. MICs were recorded at the lowest peptide concentration without visible turbidity and spectrophotometrically by measuring the optical density (OD) at 492 nm (Tecan, Salzburg, Austria).

[1] = system: S. epidermidis ATCC 12228; assay: MIC assay, S. epidermidis ATCC 12228; conditions: two-fold dilution in 96-well plates, MHB, 2-7 × 10^5 CFU/mL, 18–24 h, 37 °C
Experimental: as §1

[2] = system: S. typhimurium ATCC 14028; assay: MIC assay, S. typhimurium ATCC 14028; conditions: two-fold dilution in 96-well plates, MHB, 2-7 × 10^5 CFU/mL, 18–24 h, 37 °C
Experimental: as §1

[3] = system: human red blood cells (hRBCs); assay: Hemolytic activity assay; conditions: lowest peptide concentration that induces 5% hemolysis; hRBCs in PBS pH 7.4, 1 h, 37 °C, OD570
Experimental: Hemolytic activity measurements were performed to evaluate the effect of peptides on hemoglobin release levels by erythrocyte lysis. The experimental protocol was reviewed and approved by the ethics committee of the Northeast Agricultural University Hospital, and the experimental method was carried out in accordance with the approved guidelines and regulations. A total of 1 mL of fresh hRBCs was collected and diluted 10-fold with PBS (pH 7.4). A quantity of 50 μL of the hRBCs solution was incubated with 50 μL of serially diluted peptides dissolved in PBS for 1 h at 37 °C. hRBC suspension treated with 0.1% Triton X-100 was employed as a positive control and an untreated hRBC suspension was used as a negative control. A total of 50 μL of the supernatant was collected from the mixture after centrifugation (1000g, 5 min, 4 °C) and transferred to a new 96-well microplate. The percent hemolysis was calculated using the following equation: Hemolysis (%) = [(OD570 of the treated sample — OD570 of the negative control)/(OD570 of the positive control — OD570 of the negative control)] × 100%.

E. coli UB1005 = assay: MIC assay, E. coli UB1005; conditions: two-fold dilution in 96-well plates, MHB, 2-7 × 10^5 CFU/mL, 18–24 h, 37 °C
Experimental: as §1

## CC[C@H](C)[C@H](NC(=O)CN)C(=O)NCC(=O)N[C@@H](C)C(=O)N[C@H](C(=O)N[C@@H](CC(C)C)C(=O)N[C@@H](CCCCN)C(=O)N[C@H](C(=O)N[C@@H](CC(C)C)C(=O)N[C@H](C(=O)N[C@H](C(=O)NCC(=O)N[C@@H](CC(C)C)C(=O)N1CCC[C@H]1C(=O)N[C@@H](C)C(=O)N[C@@H](CC(C)C)C(=O)N[C@H](C(=O)N[C@@H](CO)C(=O)N[C@@H](Cc1c[nH]c2ccccc12)C(=O)N[C@H](C(=O)N[C@@H](CCCCN)C(=O)N[C@@H](CCCNC(=N)N)C(=O)N[C@@H](CCCCN)C(=O)N[C@@H](CCCNC(=N)N)C(=O)N[C@@H](CCC(N)=O)C(=O)N[C@@H](CCC(N)=O)C(N)=O)[C@@H](C)CC)[C@@H](C)CC)[C@@H](C)O)[C@@H](C)O)C(C)C)C(C)C [Melittin]
P. aeruginosa ATCC 27853
  MIC: 2 µM (≈ 5.69 µg/mL)
[1]
  MIC: 0.5 µM (≈ 1.42 µg/mL)
[2]
  MIC: 4 µM (≈ 11.4 µg/mL)
[3]
  MHC5 (minimum hemolysis concentration 5%): 0.25 µM
E. coli UB1005
  MIC: 2 µM (≈ 5.69 µg/mL)

Reference: article PMC6470953, “Symmetrical Modification of Minimized Dermaseptins to Extend the Spectrum of Antimicrobials with Endotoxin Neutralization Potency” (International Journal of Molecular Sciences, 2019)
